Chains of the proteins cited; added tags and fusions are not shown.
UniProt P32300, whole entry: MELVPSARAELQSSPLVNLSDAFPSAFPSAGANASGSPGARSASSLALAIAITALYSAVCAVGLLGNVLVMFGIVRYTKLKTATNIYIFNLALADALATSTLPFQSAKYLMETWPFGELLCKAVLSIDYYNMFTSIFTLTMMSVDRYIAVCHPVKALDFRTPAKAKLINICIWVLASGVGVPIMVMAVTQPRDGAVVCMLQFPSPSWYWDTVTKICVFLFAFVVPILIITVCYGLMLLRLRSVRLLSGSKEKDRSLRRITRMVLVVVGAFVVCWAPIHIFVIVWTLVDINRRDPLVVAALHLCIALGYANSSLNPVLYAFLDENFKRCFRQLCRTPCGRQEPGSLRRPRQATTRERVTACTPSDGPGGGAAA

According to patent US6855807B1 (priority 1999, dated 2005):

Molecular target: delta opioid receptor (Mus musculus, UniProt P32300)
Assay: Competition of 3H-diprenorphine binding in membranes of cells expressing delta receptors
Conditions: read-out: Delta (Ki nM); ligand alone; competition with 3H-diprenorphine; mean ± SEM (n = 3-4)

`CO[C@]12CC[C@@]3(C[C@@H]1C(C)(C)O)[C@H]1Cc4ccc(O)c5c4[C@@]3(CCN1CC1CC1)[C@H]2O5` was tested, and the Ki was 1.43 nM.
